Results as given in paper PMC9386001, “Identification of naturally occurring inhibitors in Xian-Ling-Gu-Bao capsule against the glucuronidation of estrogens” (Frontiers in Pharmacology, 2022).

Assays:
UGT2B7 = target: T1, UGT2B7 (Homo sapiens, UniProt P16662); assay: Inhibition of UGT2B7 (zidovudine-N-glucuronidation)
T1 sequence (P16662 24-529): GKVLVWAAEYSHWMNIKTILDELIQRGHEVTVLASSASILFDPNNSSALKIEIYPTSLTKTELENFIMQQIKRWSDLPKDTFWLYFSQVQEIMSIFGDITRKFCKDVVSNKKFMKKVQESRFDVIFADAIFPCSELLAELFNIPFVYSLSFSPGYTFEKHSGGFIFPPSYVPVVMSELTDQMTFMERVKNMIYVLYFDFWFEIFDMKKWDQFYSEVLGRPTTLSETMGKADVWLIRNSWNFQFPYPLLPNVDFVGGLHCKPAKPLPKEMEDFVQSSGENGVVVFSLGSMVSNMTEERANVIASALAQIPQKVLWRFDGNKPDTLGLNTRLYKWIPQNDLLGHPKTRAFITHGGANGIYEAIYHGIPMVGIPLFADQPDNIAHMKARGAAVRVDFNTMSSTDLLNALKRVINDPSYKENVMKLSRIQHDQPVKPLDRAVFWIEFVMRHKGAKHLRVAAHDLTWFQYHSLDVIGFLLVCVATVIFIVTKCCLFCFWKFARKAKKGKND
Description: (§1) The final volume of solvent in incubations was 1%. In addition, emodin, atazanavir, and diclofenac were considered as positive controls for UGT1A10, UGT1A1, and UGT2B7, respectively.
(§2) Competitive inhibition, non-competitive inhibition, and mixed-type inhibition models were used to estimate the Ki values by nonlinear regression based on Eqs 6–8, respectively.

UGT1A10 = target: T2, UGT1A10 (Homo sapiens, UniProt Q9HAW8); assay: Inhibition of UGT1A10 (4-methylumbelliferone-O-glucuronidation); conditions: best model by smallest AIC and SC
T2 sequence (Q9HAW8 26-530): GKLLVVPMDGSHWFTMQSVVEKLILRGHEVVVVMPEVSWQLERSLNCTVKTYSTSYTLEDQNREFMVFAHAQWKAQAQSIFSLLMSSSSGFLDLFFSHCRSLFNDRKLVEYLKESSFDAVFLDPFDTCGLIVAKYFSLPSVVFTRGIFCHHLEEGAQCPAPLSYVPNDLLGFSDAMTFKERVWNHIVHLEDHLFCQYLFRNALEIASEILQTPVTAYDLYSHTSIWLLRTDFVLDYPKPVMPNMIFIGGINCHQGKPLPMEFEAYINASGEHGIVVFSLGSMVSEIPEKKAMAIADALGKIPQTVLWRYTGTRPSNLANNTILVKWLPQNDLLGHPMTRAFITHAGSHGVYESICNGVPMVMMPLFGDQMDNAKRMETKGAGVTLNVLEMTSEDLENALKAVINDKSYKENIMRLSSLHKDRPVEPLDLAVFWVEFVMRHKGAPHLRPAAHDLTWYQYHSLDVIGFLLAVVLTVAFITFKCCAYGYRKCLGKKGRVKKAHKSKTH
Description: as §1, §2

Ki (UGT2B7) [µM]	Inhibitory type (UGT1A10)	Structure (SMILES)
2.02 ± 0.26	–	C=C[C@@](C)(/C=C/c1ccc(O)cc1)CCC=C(C)C [Bakuchiol, bakuchiol]
–	Non-competitive	COc1ccc(-c2oc3c(CC=C(C)C)c(O[C@@H]4O[C@H](CO)[C@@H](O)[C@H](O)[C@H]4O)cc(O)c3c(=O)c2O[C@@H]2O[C@@H](C)[C@H](O)[C@@H](O)[C@H]2O)cc1 [Icariin, icariin]
